Drawing on BindingDB's records for doi:10.1016/0028-3908(93)90181-2 (Boots Pharmaceuticals, 1993), this text covers Ki for four compounds.

Sequences of proteins named here, by UniProt entry; tags and fusion partners are left off.
UniProt P31652, whole entry: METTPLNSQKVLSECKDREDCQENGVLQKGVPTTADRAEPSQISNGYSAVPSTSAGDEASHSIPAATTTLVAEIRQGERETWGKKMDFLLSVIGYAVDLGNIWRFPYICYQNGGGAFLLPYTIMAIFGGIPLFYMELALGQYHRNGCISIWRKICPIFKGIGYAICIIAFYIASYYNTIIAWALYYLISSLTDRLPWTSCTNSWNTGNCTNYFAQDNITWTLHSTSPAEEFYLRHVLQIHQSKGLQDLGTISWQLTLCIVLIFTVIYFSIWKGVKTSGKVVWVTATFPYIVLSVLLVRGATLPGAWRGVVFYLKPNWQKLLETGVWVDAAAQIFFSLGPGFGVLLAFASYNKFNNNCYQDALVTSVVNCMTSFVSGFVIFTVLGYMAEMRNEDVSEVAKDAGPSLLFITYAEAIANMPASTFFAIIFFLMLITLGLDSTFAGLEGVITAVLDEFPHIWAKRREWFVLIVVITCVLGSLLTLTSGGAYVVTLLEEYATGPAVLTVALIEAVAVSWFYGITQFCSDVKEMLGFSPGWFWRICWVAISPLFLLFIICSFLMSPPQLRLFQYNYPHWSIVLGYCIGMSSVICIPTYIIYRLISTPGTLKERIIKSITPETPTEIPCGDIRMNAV

In general, Ki refers to a dissociation constant, usually derived from enzyme kinetics or from competition with a known ligand.

In this assay the target is Sodium-dependent serotonin transporter (Rattus norvegicus, UniProt P31652).
In the case of `CC(C)CC(N)C1(c2ccc(Cl)cc2)CCC1` (centres undefined) [NSC_134771], the affinity, expressed as Ki, was 18 nM.

`CC(C)CC(N(C)C)C1(c2ccc(Cl)cc2)CCC1` (centres undefined) [CAS_106650-56-0] registered a Ki of 2140 nM.

As to `CNCCC=C1c2ccccc2CSc2ccccc21` [CAS_1154-09-2], affinity was put at a Ki of 130 nM.

In turn, `N[C@H]1CC[C@@H](c2ccc(Cl)c(Cl)c2)c2ccccc21` came in with a Ki of 2.29 nM.
